{"source": "paper PMC7662900", "about": "“Development of a Bestatin-SAHA Hybrid with Dual Inhibitory Activity against APN and HDAC” (Molecules, 2020)", "target": "T1, HDAC8 (Homo sapiens, UniProt Q9BY41)", "T1 construct": "purchased BPS Bioscience", "T1 sequence (Q9BY41 1-377)": "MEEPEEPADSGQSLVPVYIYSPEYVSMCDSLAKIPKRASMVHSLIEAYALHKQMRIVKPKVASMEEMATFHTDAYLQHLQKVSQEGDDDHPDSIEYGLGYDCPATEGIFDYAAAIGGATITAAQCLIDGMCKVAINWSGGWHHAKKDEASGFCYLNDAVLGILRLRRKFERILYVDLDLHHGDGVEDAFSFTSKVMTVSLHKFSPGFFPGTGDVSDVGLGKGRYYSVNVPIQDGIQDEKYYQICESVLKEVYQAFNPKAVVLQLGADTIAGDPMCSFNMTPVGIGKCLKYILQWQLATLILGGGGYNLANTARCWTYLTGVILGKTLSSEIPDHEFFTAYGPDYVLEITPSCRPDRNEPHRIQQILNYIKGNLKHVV", "experiment": "In vitro HDACs inhibitory assay (fluorogenic substrate), HDAC8", "assay_type": "biochemical", "details": "mean ± SD, n ≥ 3", "description": "All the HDAC enzymes were brought from BPS Bioscience. Ten μL of enzyme solution (HDAC1, HDAC6 or HDAC8) was mixed with different concentrations of tested compound (50 μL). The mixture was incubated at 37 °C for 5 min, followed by adding 40 μL fluorogenic substrate (Boc-Lys(acetyl)-AMC for HDAC1 and HDAC6, Boc-Lys(triflouroacetyl)-AMC for HDAC8). After incubation at 37 °C for 30 min, the mixture was quenched by addition of 100 μL of developer containing trypsin and Trichostatin A. Over another incubation at 37 °C for 20 min, fluorescence intensity was measured using a microplate reader at excitation and emission wavelengths of 390 nm and 460 nm, respectively. The inhibition rates were calculated from the fluorescence intensity readout of tested wells relative to those of control wells, and the IC50 values were calculated using Prism non-linear curve fitting method."}
{"smiles": "O=C(CCCCCCC(=O)Nc1ccccc1)NO", "note": "[SAHA]", "values": [{"measurement": "IC50", "value": "> 7", "unit": "µM"}]}
